# TCR activator: T cell receptor activation. primary human leukocytes, anti-CD3, IL-2 HTRF, 48 h. Potency, µM (highest dose often 9.22 µM), inactives show at the top dose activation of IL-2 secretion, most hits filed as activators. 330,000 tested, under 10 active. AID 504894; further: % of control where 0% means no effect
#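 Using a-CD3 beads without co-stimulation, primary human leukocytes were exposed to compounds for 48 hr. An HTRF IL-2 kit measured the cytokine, with europium-to-d2 energy transfer producing emission at 665nm upon 320nm excitation.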
# Nrf2 block: Nrf2 pathway inhibition. A549 ARE-Fluc reporter, luciferase luminescence, 18-24 h. Potency, µM (highest dose often 46 µM), without a hit: at the highest dose activity change, negative = inhibition, hits mostly inhibitors. hit rate 2.1% among 360,000; further: potency means the concentration at half of the fitted maximal effect; on the % scale 0 is the no-effect control and ±100 the full control effect; nearly all actives have a fitted effect of over 60% in size
#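 Reporter: ARE-Fluc in A549. Exposure: 18-24 h, 37 °C, 5% CO2, 5% FBS OPTI-MEM. Readouts: fluorescent cytotoxicity (CellTiter-Fluor), then luminescent Nrf2 signal after BugLite.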
# Nrf2 activator: activators of Nrf2 (ARE) signaling; AREc32 ARE-luciferase reporter (MCF7-derived line), luminescence, 24 h; Potency, µM (series often up to 46.1 µM), inactives show at the highest dose activation, most hits filed as activators; hit rate 0.31% among 410,000; further: potency means the concentration at half of the fitted maximal effect; % of control where 0% means no effect; nearly all actives have a fitted effect of over 65% in size
#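 Steps: seed AREc32_Fluc cells (1000/well, 5% FBS OPTI-MEM); incubate overnight at 37 deg C; add 23 nL compound; incubate 24 hr; add Steady-Glo; hold 30 min RT; read luminescence.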
# A549 tox: kills or reduces viability of A549 cells in Nrf2 counter-screen | A549 ARE-Fluc cells, CellTiter-Fluor viability, 18-24 h | hit rate 0.16% among 390,000 | Potency, µM (series often up to 46 µM), for the others: top-dose activity change, negative = cytotoxicity, actives largely listed as inhibitors | AID 504648; further: potency means the concentration at half of the fitted maximal effect; on the % scale 0 is the no-effect control and ±100 the full control effect
#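 A549 ARE_Fluc cells in 5% FBS OPTI-MEM were exposed to compounds in concentration-response for 18-24 h at 37 deg C. Viability was read by CellTiter-Fluor fluorescence (Ex 405/Em 525) after 30 min, before the luciferase read.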
# ClpP mod: qHTS Assay for Activators of ClpP; purified B. subtilis ClpP, FRET peptide cleavage, 20 min; AID 651965, 2013; Potency, µM (titrated, usually from 57.5 µM), without a hit: at the top dose activity change, negative = active; hit rate 1.9% among 340,000; ATP-dependent Clp protease proteolytic subunit (Bacillus subtilis (strain 168)), P80244; active means well fitted falling curve with a large enough effect; inconclusive means small, poorly fitted or top-dose-only effect; inactive means no such curve, though single readings can be large or run the other way; further: potency means the concentration at half of the fitted maximal effect; the source files actives as falling curves though it sought activators and does not explain the sign; nearly all actives have a fitted effect of over 65% in size
#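 FRET quenching reversal measured ClpP activation: 10 microg/mL B. subtilis ClpP at pH 8 with the FRET-FV decapeptide, read at 430 nm after 320 nm excitation. The 20-min minus 0-min signal was scaled between DMSO/no-enzyme wells and ADEP (5.8 microM final).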
# miR-21 FLuc: miR-21 reporter, rising signal | 340,000 tested, under 10 active | AID 2288 | HeLa miR-21 FLuc reporter, luciferase, 48 h | Potency, µM (titrated, usually from 38.3 µM), for inactives: at the highest dose reporter change, positive = more light; active = well fitted rising curve with a large enough effect; inconclusive = small, poorly fitted or top-dose-only effect; inactive = no such curve, though single readings can be large or run the other way;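 further: % of control where 0% means no effect; miR-21 action dims this reporter so a rising signal means less miR-21 action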
#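 Compounds were titrated across several concentrations (up to approximately 40 uM) and incubated 48 hours with HeLa miR-21-FLuc reporter cells (miR-21 target sequence downstream of FLuc, endogenous miR-21). Readout was firefly luciferase luminescence after lytic detection reagent.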
# * hit, by the source's call; ? = inconclusive; . = no result; [ ] = another dose, or the depositor's remark. A selection: hits, their analogues and other compounds. The true share with any hit is near 3.7%. Unless noted, the call rests on the fitted dose curve; in most records, active means well fitted curve in the direction sought with a large enough effect; inconclusive means small, poorly fitted or top-dose-only effect, or another doubt; inactive means no such curve, though single readings can be large; an effect the other way counts as inactive or inconclusive.
no. | Molecule | TCR activator | Nrf2 block | Nrf2 activator
1 | Cc1c(C(=O)NCc2ccccc2)oc2ccc(S(=O)(=O)N3CCC4(CC3)OCCO4)cc12 | 7.2% | 20.6µM* | 2.9%
2 | C=CCn1c(SCC(N)=O)nc2ccccc2c1=O | . | 5.6% | .
3 | Cc1ccc(-c2nn(-c3ccccc3)cc2C2CC(c3ccccc3)=NN2C(=O)CCC(=O)O)cc1 (stereo unspecified) | -1.6% | 20.6µM* | -0.2%
4 | O=C(O)CCC(=O)N1N=C(c2cccs2)CC1c1cn(-c2ccccc2)nc1-c1ccccc1 (stereo unspecified) | -77.3% | -23.3% | 14.2%
5 | Cc1ccc(C2=NN(C(=O)CCC(=O)O)C(c3cn(-c4ccccc4)nc3-c3ccc(C)cc3)C2)cc1 (stereo unspecified) | -4.3% | -17.5% | -0.8%
6 | O=C(Cn1cc(CNCc2ccccc2)nn1)Nc1cc(C(F)(F)F)ccc1Cl | . | 10.3% | .
7 | Cc1noc(C)c1C(=O)N1CCC1(C)C(=O)NS(=O)(=O)c1cccc(OC(F)F)c1 (stereo unspecified) | . | . | 0.0%
8 | Cc1ccc(Cc2nc3ccccc3nc2SCC(=O)NCCc2ccccc2)cc1 | . | . | -0.7%
9 | CCOC(=O)c1cnc(SC)nc1Sc1ccccc1Cl | 3.3% | . | -0.6%
10 | CSc1nc(Sc2ccccc2Cl)c2ccccc2n1 | -1.2% | -15.6% | 8.6%
11 | CCCCC(=O)OCc1nc2ccccc2s1 | -2.4% | ? | 3.3%
12 | c1ccc2sc(SCSc3nc4ccccc4s3)nc2c1 | -3.4% | 13.6% | 6.7%

no. | A549 tox | ClpP mod | miR-21 FLuc
1 | 0.8% | -2.0% | 15.1%
2 | 2.6% | -3.1% | .
3 | -6.7% | . | -5.0%
4 | -20.1% | 14.1µM* | -9.5%
5 | ? | -29.7% | -19.3%
6 | -2.2% | . | .
7 | . | 0.3% | .
8 | 2.7% | -3.7% | 1.0%
9 | -2.6% | 1.5% | -2.4%
10 | 2.6% | 31.6µM* | -2.8%
11 | 1.3% | 15.8µM* | -17.9%
12 | 2.3% | -0.6% | -33.6%

# (list continues)
no. | Molecule | TCR activator | Nrf2 block | Nrf2 activator
13 | CCOC(=O)NC(=O)COC(=O)CCCSc1nc2ccccc2s1 | 0.6% | 18.4µM* | -2.0%
14 | NC(=O)NC(=O)COC(=O)CCCSc1nc2ccccc2s1 | 3.5% | ? | -2.1%
15 | O=C(O)CCSc1nc2ccccc2s1 | . | 13µM* | -1.7%
16 | Cc1cccc(N2CCn3c2nc2c3c(=O)n(CCCc3ccccc3)c(=O)n2C)c1 | . | -3.2% | 1.9%
17 | COc1ccc(C(=O)N2CCC2(C)C(=O)NC(C)C)c(OC)c1 (stereo unspecified) | . | . | 0.4%
18 | O=C(Cn1c(=O)n(-c2ccc(Cl)cc2)c(=O)c2oc3ccccc3c21)Nc1ccccc1 | . | 22.3% | 5.5%
19 | C=CCSc1nccc(-c2cc(Cl)sc2Cl)n1 | 4.7% | 4.5% | 10µM*
20 | N#CCSc1nccc(-c2cc(Cl)sc2Cl)n1 | 1.9% | -17.3% | 7.94µM*
21 | C=CCSc1ncc(-c2ccccc2)cn1 | -10.1% | ? | 2.7%
22 | C(=C\c1nc(N2CCCCCC2)c2ccccc2n1)/c1ccccc1 | 5.5%[46.1 µM] | ? | 12.2%
23 | Cc1c(Cc2ccccc2)c(=O)[nH]c(=O)n1C | -0.8% | -11.0% | 2.5%
24 | N#Cc1nc(Cc2ccccc2)oc1N1CCC(C(N)=O)CC1 | -0.6% | 3.6% | 0.1%

no. | A549 tox | ClpP mod | miR-21 FLuc
13 | -10.0% | -0.2% | 14.5%
14 | -0.6% | -5.0% | 20.2%
15 | 0.5% | 0.4% | ?
16 | 3.1% | ? | -6.3%
17 | . | 2.5% | .
18 | -0.6% | ? | -35.2%
19 | 6.5% | -3.2% | -9.8%
20 | 1.0% | ? | -7.3%
21 | 0.3% | . | -53.7%
22 | ? | 31.6µM* | -2.9%
23 | 2.4% | . | .
24 | -1.8% | 12.6µM* | -6.0%

# (more compounds)
no. | Molecule | TCR activator | Nrf2 block | Nrf2 activator
25 | O=S1(=O)C=C(Sc2nc3cc(Cl)ccc3o2)c2ccccc21 | -2.4% | ? | 8.91µM*
26 | Cc1cc(NC(=O)CSc2nc3cc(Cl)ccc3o2)no1 | 1.0% | 9.4% | -0.3%
27 | CCOC(=O)/C=C1/SCC(=O)N1CC(=O)Nc1ccc2c(c1)CCC2 | -1.2% | 3.1% | 0.4%
28 | CCc1cc(=O)oc2c(C)c(OCC(=O)N3CCCc4ccccc43)ccc12 | 1.9% | 11.6µM* | 2.4%

no. | A549 tox | ClpP mod | miR-21 FLuc
25 | ? | -2.0% | 27.4%
26 | -0.7% | . | -5.8%
27 | 1.8% | -6.6% | .
28 | 1.2% | ? | -0.8%

# One compound at a time (already shown). Values in the order: TCR activator | Nrf2 block | Nrf2 activator | A549 tox | ClpP mod | miR-21 FLuc
# Listed for CCc1cc(=O)oc2c(C)c(OCC(=O)N3CCCc4ccccc43)ccc12 : 1.9% | 11.6µM* | 2.4% | 1.2% | ? | -0.8%
# Listed for Cc1cc(NC(=O)CSc2nc3cc(Cl)ccc3o2)no1 : 1.0% | 9.4% | -0.3% | -0.7% | . | -5.8%

# Some values from the results shown.
# In ClpP mod, CCOC(=O)/C=C1/SCC(=O)N1CC(=O)Nc1ccc2c(c1)CCC2 has the entry -6.6%
# In A549 tox, N#CCSc1nccc(-c2cc(Cl)sc2Cl)n1 has the entry 1.0%
# In Nrf2 block, Cc1ccc(C2=NN(C(=O)CCC(=O)O)C(c3cn(-c4ccccc4)nc3-c3ccc(C)cc3)C2)cc1 (stereo unspecified) has the entry -17.5%
